{"source": "ChEMBL document CHEMBL1134394", "about": "“Synthesis and biological activity of aminoguanidine and diaminoguanidine analogues of the antidiabetic/antiobesity agent 3-guanidinopropionic acid” (2001)", "test": "In vivo blood glucose was determined in obese, hyperglycemic, hyperinsulinemic, insulin-resistant KKAy mice after a dose of 500 mg/kg for 4 days", "data": [{"smiles": "N/C(=N/N=C/C(=O)O)N[N+](=O)[O-]", "values": [{"measurement": "MISS T/C", "value": 1.23}]}]}
